{
  "source": "ChEMBL document CHEMBL1129144",
  "about": "“Stereoselective synthesis and biological activity of cis azetidinones as cholesterol absorption inhibitors” (1996)",
  "tested_on": "Cricetinae gen. sp.",
  "assay": "Compound was tested for cholesterol reduction in liver in the cholesterol-fed hamster model after oral administration.",
  "assay_type": "functional",
  "data": [
    {"smiles": "COc1ccc([C@@H]2[C@@H](CCCc3ccccc3)C(=O)N2c2ccc(OC)cc2)cc1", "values": [
      {"measurement": "ED50", "value": 2.2, "unit": "mg/kg"}
    ]}
  ]
}
